{
  "source": "patent US20120130699A1",
  "about": "“Method of molecular design and synthesis of therapeutic and preventive drugs” (priority 2010, published 2012)",
  "molecules": {"B1": {"name": "beta-interferon: beta-interferon, treatment of disseminated sclerosis (protein, UniProt P01574 22-187, looked up)", "Interferon beta": "MSYNLLGFLQRSSNFQCQKLLWQLNGRLEYCLKDRMNFDIPEEIKQLQQFQKEDAALTIYEMLQNIFAIFRQDSSSTGWNETIVENLLANVYHQINHLKTVLEEKLEKEDFTRGKLMSSLHLKRYYGRILHYLKAKEYSHCAWTIVRVEILRNFYFINRLTGYLRN"}},
  "key": {"CaOv cells": {"system": "CaOv cells", "assay": "antiproliferative activity of IFN derivatives (IAA) on CaOv cells", "type": "cell-based, human", "conditions": "1000 U/ml, FIG. 2", "protocol": "(§1) For the synthesis of quasi-life systems on the basis of α-2b-interferon, interferon (IFN) (Biolek, Kharkiv, Ukraine) and succinic and aconitic anhydrides (Aldrich-Sigma, USA) were used. The end of the reaction was controlled through changing the molecular weight of the IFN through pulse-gel-electrophoresis in polyacrylamide gel, using non-acylated IFN as a control^[ ]. […] The modified IFN were cleaned with chromatography on Sephadex G-25 and then preserved at −20° C. Their antiproliferative activity was studied on cells of the CaOv line, which is highly sensitive to interferons in vitro, and on SW-480, a cell line with a low sensitivity to the activity of IFN in vitro. […] The cell cultures' sensitivity to IFN was evaluated by the level of slowing of cell growth after treatment with the quasi-life IFN derivatives.\n(§2) The Index of Antiproliferative Activity (IAA) of IFN (%) was calculated as a ratio between the number of cells in the experimental well and the number of cells in the control multiplied by 100. The non-specific cytotoxic effect was determined through dyeing the cells with trypan blue incubation after a 24-hour incubation of the cells with IFN derivatives. […] The number of cells was determined using an inverted microscope (Leica, Germany) every twelve hours."}, "SW-480 cells": {"system": "SW-480 cells", "assay": "antiproliferative activity of IFN derivatives (IAA) on SW-480 cells", "type": "cell-based, human", "protocol": "as §1, §2"}, "[1]": {"conditions": "treatment of disseminated sclerosis, cited from earlier work"}},
  "data": [
    {"molecule": "1-substituted SIF: α-2b-interferon acylated with succinic anhydride, mole ratio 1:1", "values": [
      {"measurement": "increase in the index of antiproliferation activity (IAA)", "setting": "CaOv cells; versus unmodified IFN", "value": 3.2, "unit": "times"}
    ]},
    {"molecule": "6-substituted SIFs: α-2b-interferon acylated with succinic anhydride, mole ratio 1:6", "values": [
      {"measurement": "antiproliferative activity", "setting": "CaOv cells", "value": "does not appear"}
    ]},
    {"molecule": "IFN: α-2b-interferon (Biolek, Kharkiv, Ukraine), non-acylated", "values": [
      {"measurement": "antiproliferative activity", "setting": "SW-480 cells; SW-480, 1000 U/ml, FIG. 3", "value": "does not have antiproliferative activity"},
      {"measurement": "slow in growth, share of the cells", "setting": "SW-480 cells; after twelve hours of incubation", "value": "literally ineffective"}
    ]},
    {"molecule": "B1", "values": [
      {"measurement": "exceeds the placebo in effectiveness", "setting": "[1]", "value": 8, "unit": "%"},
      {"measurement": "effectiveness", "setting": "[1]; placebo 30%", "value": 38, "unit": "%"}
    ]}
  ]
}
